The values below come from patent US20240301023A1 (priority 2020, published 2024).

Chains of the proteins cited; added tags and fusions are not shown. Lines headed by an entry give the natural chain unless they say otherwise; changes in a name come on top.
UniProt P41145: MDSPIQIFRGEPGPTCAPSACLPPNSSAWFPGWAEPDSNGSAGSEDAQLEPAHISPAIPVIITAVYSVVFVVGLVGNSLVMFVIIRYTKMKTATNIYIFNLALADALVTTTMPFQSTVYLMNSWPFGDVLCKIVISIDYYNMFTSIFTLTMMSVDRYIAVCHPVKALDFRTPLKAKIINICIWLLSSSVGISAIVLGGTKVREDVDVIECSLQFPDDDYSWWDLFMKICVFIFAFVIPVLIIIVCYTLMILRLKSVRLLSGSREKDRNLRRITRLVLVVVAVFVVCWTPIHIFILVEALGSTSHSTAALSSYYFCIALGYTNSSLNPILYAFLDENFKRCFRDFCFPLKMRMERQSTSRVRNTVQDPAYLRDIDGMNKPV

The structures appear in SMILES notation.

The target of the experiment is KOR (Homo sapiens, UniProt P41145). As to the kind of experiment: biochemical. Type of experiment: binding.

For `Oc1ccc2c3c1O[C@H]1c4[nH]c5ccccc5c4C[C@@]4(O)[C@@H](C2)N(CC2CC2)CC[C@]314` [Naltrindole, reference compound], the Kd (in general, a measure of binding affinity in units of concentration) was found to be 0.8 nM.
